Source: article PMC4745676

Key:
[1] = biological target: human IL-12 (human) (UniProt P29459); assay: ELISA; direct ELISA-based receptor binding assay (as in ref. 50); OD450nm plotted against tIL12rβ1/Fc concentration; EC50 fitted with a single-site binding model
[2] = biological target: human IL-23 (human) (UniProt Q9NPF7); assay: as above

Row | Substance | EC50 [1] [nM] | EC50 [2] [nM]
1 | human truncated IL12rβ1-Fc fusion protein (from UniProt P42701-1 24-236) | 30.2 | 
2 | human truncated IL12rβ1-Fc fusion protein (from UniProt P42701-1 24-236) (Fc fusion; other documents disagree on this pair) |  | 32.7
